{"sequences": {"note": "Amino acid sequences for entries named in this document (tags omitted). A change or cut given only in a name is not applied to a line headed by its entry.", "UniProt P28072": "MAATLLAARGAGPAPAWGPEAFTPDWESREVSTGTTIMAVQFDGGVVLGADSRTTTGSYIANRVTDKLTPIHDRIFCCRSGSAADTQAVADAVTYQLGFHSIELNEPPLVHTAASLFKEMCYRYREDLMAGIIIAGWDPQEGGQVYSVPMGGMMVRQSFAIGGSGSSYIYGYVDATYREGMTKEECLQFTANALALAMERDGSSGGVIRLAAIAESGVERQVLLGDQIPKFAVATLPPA", "UniProt Q99436": "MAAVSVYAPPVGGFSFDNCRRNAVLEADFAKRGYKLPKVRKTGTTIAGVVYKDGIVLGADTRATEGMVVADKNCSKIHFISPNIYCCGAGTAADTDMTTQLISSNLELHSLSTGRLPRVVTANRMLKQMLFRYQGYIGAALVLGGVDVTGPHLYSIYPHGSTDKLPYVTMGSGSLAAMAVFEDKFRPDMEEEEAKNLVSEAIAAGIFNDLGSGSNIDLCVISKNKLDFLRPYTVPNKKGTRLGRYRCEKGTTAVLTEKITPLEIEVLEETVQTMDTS"}, "source": "paper PMC3782865", "about": "(Journal of medicinal chemistry, 2013)", "target": "proteasome caspase-like (Casp-L) sites in HEK-293T cells (Homo sapiens, UniProt P28072+Q99436)", "type": "cell-based", "data": [{"smiles": "CC(C)C[C@H](NC(=O)[C@H](Cc1ccncc1)NC(=O)[C@H](Cc1ccccc1)N=[N+]=[N-])C(=O)N[C@H](/C=C/S(C)(=O)=O)Cc1ccc(CN)cc1", "note": "[compound 10]", "values": [{"measurement": "IC50", "result": "> 50", "unit": "µM"}]}]}
